Test results: ChEMBL document CHEMBL1144780, “Synthesis and SAR of new pyrrolo[2,1-f][1,2,4]triazines as potent p38 alpha MAP kinase inhibitors” (Bioorg Med Chem Lett, 2008)

Protein sequences, listed by entry. Tags and fused reporters are not part of them.
UniProt Q16539, whole entry: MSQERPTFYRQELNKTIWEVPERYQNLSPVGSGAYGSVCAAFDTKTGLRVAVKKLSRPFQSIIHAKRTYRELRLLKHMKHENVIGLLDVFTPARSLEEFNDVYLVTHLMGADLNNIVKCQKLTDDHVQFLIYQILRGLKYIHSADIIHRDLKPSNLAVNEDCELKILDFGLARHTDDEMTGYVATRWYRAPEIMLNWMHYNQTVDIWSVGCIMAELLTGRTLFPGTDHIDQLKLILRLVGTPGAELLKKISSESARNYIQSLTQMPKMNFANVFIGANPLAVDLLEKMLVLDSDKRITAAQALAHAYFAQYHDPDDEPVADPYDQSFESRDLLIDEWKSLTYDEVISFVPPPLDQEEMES

Molecular target: Mitogen-activated protein kinase 14 (Homo sapiens, UniProt Q16539)
Assay: Inhibition of p38alpha
Method in brief: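 Bacterially expressed, activated p38 at 10 nM, preincubated 10 min with compound in 50 mM Tris pH 7.5, 10 mM MgCl2, 50 mM NaCl, 1 mM DTT, 0.3% DMSO. Run 45 min at 25 °C, stopped with EDTA, filter-captured and scintillation counted. IC50 from nonlinear least-squares regression.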

COC[C@H](C)NC(=O)c1cn2ncnc(Nc3cc(NC(=O)c4ccc(C#N)cc4)ccc3C)c2c1C
IC50: 16 nM
